Values quoted from earlier work as cited in US6887842B1, “Modulating a pharmacokinetic property of a drug by administering a bifunctional molecule containing the drug” (The Board of Trustees of the Leland Stanford Junior …, priority 1999, dated 2005).

Amino acid sequences for entries named in this document (tags omitted). Residues count along the entry.
UniProt P02768, 25-609, species assumed: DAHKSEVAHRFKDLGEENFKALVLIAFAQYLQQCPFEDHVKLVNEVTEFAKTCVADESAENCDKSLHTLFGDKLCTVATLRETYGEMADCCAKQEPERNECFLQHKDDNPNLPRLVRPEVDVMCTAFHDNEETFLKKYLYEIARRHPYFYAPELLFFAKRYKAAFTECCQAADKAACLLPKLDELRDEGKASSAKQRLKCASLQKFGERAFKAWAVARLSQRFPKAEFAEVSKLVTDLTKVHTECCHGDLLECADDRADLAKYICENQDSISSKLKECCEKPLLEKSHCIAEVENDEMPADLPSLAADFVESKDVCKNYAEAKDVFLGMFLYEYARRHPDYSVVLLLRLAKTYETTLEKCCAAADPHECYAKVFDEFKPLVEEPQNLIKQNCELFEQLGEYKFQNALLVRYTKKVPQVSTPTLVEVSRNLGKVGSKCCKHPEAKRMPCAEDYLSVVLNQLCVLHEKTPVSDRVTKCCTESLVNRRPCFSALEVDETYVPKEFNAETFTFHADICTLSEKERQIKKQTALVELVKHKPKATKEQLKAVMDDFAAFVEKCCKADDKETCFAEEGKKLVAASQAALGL

Target: albumin (Homo sapiens, UniProt P02768)
Conditions: read-out: affinity for albumin

CN(C)CCCN1c2ccccc2Sc2ccc(Cl)cc21 [chlorpromazine]
Kd: 5 µM
